Molecular target: R132H mutant IDH1 enzyme (Homo sapiens (Human), UniProt O75874, R132H)
Test: R132H IDH1 Enzymatic Assay
Assay type: biochemical
Settings: R132H mutant IDH1 enzyme 1.5 nM final; luminescence readout; read-out: IC50

Amino acid sequences for entries named in this document (tags omitted).
UniProt O75874, whole entry R132H: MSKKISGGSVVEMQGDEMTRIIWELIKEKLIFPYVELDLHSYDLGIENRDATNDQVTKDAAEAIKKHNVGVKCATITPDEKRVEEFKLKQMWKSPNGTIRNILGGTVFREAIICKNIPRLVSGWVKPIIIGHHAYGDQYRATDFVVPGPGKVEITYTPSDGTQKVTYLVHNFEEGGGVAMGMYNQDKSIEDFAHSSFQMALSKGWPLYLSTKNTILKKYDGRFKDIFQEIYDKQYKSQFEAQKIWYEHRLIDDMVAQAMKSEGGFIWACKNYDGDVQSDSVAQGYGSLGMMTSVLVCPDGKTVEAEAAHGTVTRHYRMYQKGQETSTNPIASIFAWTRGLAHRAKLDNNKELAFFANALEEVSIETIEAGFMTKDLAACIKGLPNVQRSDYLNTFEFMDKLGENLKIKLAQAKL

Row | Compound | IC50 [nM]
1 | CO[C@H]1CC[C@H](C(=O)N2Cc3cccnc3Nc3ccc(-c4cnn(CCO)c4)cc32)CC1 [Example 366, 2-(4-{6-[(trans-4-methoxycyclohexyl)carbonyl]-6,11-dihydro-5H-pyrido[2,3-b][1,5]benzodiazepin-8-yl}-1H-pyrazol-1-yl)ethanol] | 291
2 | CO[C@H]1CC[C@H](C(=O)N2Cc3cccnc3Nc3ccc(-c4ccnn4C(C)C)cc32)CC1 [Example 367, 6-[(trans-4-methoxycyclohexyl)carbonyl]-8-[1-(1-methyethyl)-1H-pyrazol-5-yl]-6,11-dihydro-5H-pyrido[2,3-b][1,5]benzodiazepine] | 110
3 | CO[C@H]1CC[C@H](C(=O)N2Cc3cccnc3Nc3ccc(-c4csc(C)n4)cc32)CC1 [Example 368, 6-[(trans-4-methoxycyclohexyl)carbonyl]-8-(2-methyl-1,3-thiazol-4-yl)-6,11-dihydro-5H-pyrido[2,3-b][1,5]benzodiazepine] | 276
4 | CO[C@H]1CC[C@H](C(=O)N2Cc3cccnc3Nc3ccc(-c4cnn(C(C)C)c4)cc32)CC1 [Example 369, 6-[(trans-4-methoxycyclohexyl)carbonyl]-8-[1-(1-methylethyl)-1H-pyrazol-4-yl]-6,11-dihydro-5H-pyrido[2,3-b][1,5]benzodiazepine] | 203
5 | CO[C@H]1CC[C@H](C(=O)N2Cc3cccnc3Nc3ccc(-c4cnn(C5CC5)c4)cc32)CC1 [Example 370, 8-(1-cyclopropyl-1H-pyrazol-4-yl)-6-[(trans-4-methoxycyclohexyl)carbonyl]-6,11-dihydro-5H-pyrido[2,3-b][1,5]benzodiazepine] | 149
6 | CO[C@H]1CC[C@H](C(=O)N2Cc3cccnc3Nc3ccc(-c4cnn5c4CCC5)cc32)CC1 [Example 371, 8-(5,6-dihydro-4H-pyrrolo[1,2-b]pyrazol-3-yl)-6-[(trans-4-methoxycyclohexyl)carbonyl]-6,11-dihydro-5H-pyrido[2,3-b][1,5]benzodiazepine] | 68
7 | CC(C)O[C@H]1CC[C@H](C(=O)N2Cc3cccnc3Nc3ccc(C4=CCN(C)C(=O)C4)cc32)CC1 [Example 372, 1-methyl-4-(6-{[trans-4-(1-methylethoxy)cyclohexyl]carbonyl}-6,11-dihydro-5H-pyrido[2,3-b][1,5]benzodiazepin-8-yl)-3,6-dihydropyridin-2(1H)-one] | 20
8 | CO[C@H]1CC[C@H](C(=O)N2Cc3cccnc3Nc3ccc(C4=CCN(C)C(=O)C4)cc32)CC1 [Example 373, 4-{6-[(trans-4-methoxycyclohexyl)carbonyl]-6,11-dihydro-5H-pyrido[2,3-b][1,5]benzodiazepin-8-yl}-1-methyl-3,6-dihydropyridin-2(1H)-one] | 145
9 | CC(C)O[C@H]1CC[C@H](C(=O)N2Cc3cccnc3Nc3ccc(C4CCCOC4)cc32)CC1 (stereo partly drawn) [Example 374, 6-{[trans-4-(1-methylethoxy)cyclohexyl]carbonyl}-8-(tetrahydro-2H-pyran-3-yl)-6,11-dihydro-5H-pyrido[2,3-b][1,5]benzodiazepine] | 11
10 | O=C([C@H]1CC[C@@H](NCC(F)(F)F)CC1)N1Cc2cccnc2Nc2ccc([C@@H]3CCCOC3)cc21 [Example 377, cis-4-({8-[(3S)-tetrahydro-2H-pyran-3-yl]-5,11-dihydro-6H-pyrido[2,3-b][1,5]benzodiazepin-6-yl}carbonyl)-N-(2,2,2-trifluoroethyl)cyclohexanamine] | 48
11 | O=C([C@H]1CC[C@@H](NCC(F)(F)F)CC1)N1Cc2cccnc2Nc2ccc([C@H]3CCCOC3)cc21 [Example 378, cis-4-({8-[(3R)-tetrahydro-2H-pyran-3-yl]-5,11-dihydro-6H-pyrido[2,3-b][1,5]benzodiazepin-6-yl}carbonyl)-N-(2,2,2-trifluoroethyl)cyclohexanamine] | 63
12 | O=C([C@H]1CC[C@H](NC2(C(F)(F)F)CC2)CC1)N1Cc2cccnc2Nc2ccc(C3CCOCC3)cc21 [Example 381, trans-4-{[8-(tetrahydro-2H-pyran-4-yl)-5,11-dihydro-6H-pyrido[2,3-b][1,5]benzodiazepin-6-yl]carbonyl}-N-[1-(trifluoromethyl)cyclopropyl] cyclohexanamine] | 15
13 | CCO[C@H]1CC[C@H](C(=O)N2Cc3cccnc3Nc3ccc(C4CCOCC4)cc32)CC1 [Example 382, 6-[(trans-4-ethoxycyclohexyl)carbonyl]-8-(tetrahydro-2H-pyran-4-yl)-6,11-dihydro-5H-pyrido[2,3-b][1,5]benzodiazepine] | 46
14 | Cn1ccc(-c2ccc3c(c2)N(C(=O)[C@H]2CC[C@@H](OCC(F)(F)F)CC2)Cc2cccnc2N3)n1 [Example 383, 8-(1-methyl-1H-pyrazol-3-yl)-6-{[cis-4-(2,2,2-trifluoroethoxy)cyclohexyl]carbonyl}-6,11-dihydro-5H-pyrido[2,3-b][1,5]benzodiazepine] | 83
15 | CC(C)O[C@H]1CC[C@H](C(=O)N2Cc3cccnc3Nc3ccc(C4=CCC(O)CC4)cc32)CC1 (stereo partly drawn) [Example 390, 4-(6-{[trans-4-(1-methylethoxy)cyclohexyl]carbonyl}-6,11-dihydro-5H-pyrido[2,3-b][1,5]benzodiazepin-8-yl)cyclohex-3-en-1-ol] | 11
16 | CON=C1CCC(C(=O)N2Cc3cccnc3Nc3ccc(C4=COCCO4)cc32)CC1 (stereo not shown) [Example 391, 4-{[8-(5,6-dihydro-1,4-dioxin-2-yl)-5,11-dihydro-6H-pyrido[2,3-b][1,5]benzodiazepin-6-yl]carbonyl}cyclohexanone O-methyloxime] | 36

Row | Compound | IC50 [nM]
17 | CON=C1CCC(C(=O)N2Cc3cccnc3Nc3ccc(C4=CCOCC4)cc32)CC1 (stereo not shown) [Example 392, 4-{[8-(3,6-dihydro-2H-pyran-4-yl)-5,11-dihydro-6H-pyrido[2,3-b][1,5]benzodiazepin-6-yl]carbonyl}cyclohexanone O-methyloxime] | 26
18 | CON=C1CCC(C(=O)N2Cc3cccnc3Nc3ccc(C4CCOCC4)cc32)CC1 (stereo not shown) [Example 394, 4-{[8-(tetrahdyro-2H-pyran-4-yl)-5,11-dihydro-6H-pyrido[2,3-b][1,5]benzodiazepin-6-yl]carbonyl}cyclohexanone O-methyloxime] | 30
19 | CC(C)O[C@H]1CC[C@H](C(=O)N2Cc3cccnc3Nc3ccc(C4CCC(O)CC4)cc32)CC1 (stereo partly drawn) [Example 395, 4-(6-{[trans-4-(1-methylethoxy)cyclohexyl]carbonyl}-6,11-dihydro-5H-pyrido[2,3-b][1,5]benzodiazepin-8-yl)cyclohexanol] | 4
20 | CC1CC(c2ccc3c(c2)N(C(=O)[C@H]2CC[C@H](OC(C)C)CC2)Cc2cccnc2N3)CC(C)O1 (stereo partly drawn) [Example 397, 8-(2,6-dimethyltetrahydro-2H-pyran-4-yl)-6-{[trans-4-(1-methylethoxy)cyclohexyl]carbonyl}-6,11-dihydro-5H-pyrido[2,3-b][1,5]benzodiazepine] | 20
21 | CCON=C1CC(C(=O)N2Cc3cccnc3Nc3ccc(-c4cnn(C)c4)cc32)C1 (stereo not shown) [Example 398, 3-{[8-(1-methyl-1H-pyrazol-4-yl)-5,11-dihydro-6H-pyrido[2,3-b][1,5]benzodiazepin-6-yl]carbonyl}cyclobutanone O-ethyloxime] | 36
22 | O=C([C@H]1CC[C@@H](OC2CCOC2)CC1)N1Cc2cccnc2Nc2ccc(C3CCOCC3)cc21 (stereo partly drawn) [Example 399, 6-({cis-4-[tetrahydrofuran-3-yloxy]cyclohexyl}carbonyl)-8-(tetrahydro-2H-pyran-4-yl)-6,11-dihydro-5H-pyrido[2,3-b][1,5]benzodiazepine] | 287
23 | CO[C@H]1CC[C@H](C(=O)N2Cc3cccnc3Nc3ccc(-c4cncnc4)cc32)CC1 [Example 400, 6-[(Trans-4-methoxycyclohexyl)carbonyl]-8-pyrimidin-5-yl-6,11-dihydro-5H-pyrido[2,3-b][1,5]benzodiazepine] | 582
24 | CO[C@H]1CC[C@H](C(=O)N2Cc3cccnc3Nc3ccc(-c4cnc(N(C)C)nc4)cc32)CC1 [Example 401, 5-{6-[(trans-4-methoxycyclohexyl)carbonyl]-6,11-dihydro-5H-pyrido[2,3-b][1,5]benzodiazepin-8-yl}-N,N-dimethylpyrimidin-2-amine] | 219
25 | CO[C@H]1CC[C@H](C(=O)N2Cc3cccnc3Nc3ccc(-c4cnc5c(c4)OCCN5C)cc32)CC1 [Example 402, 6-[(trans-4-methoxycyclohexyl)carbonyl]-8-(4-methyl-3,4-dihydro-2H-pyrido[3,2-b][1,4]oxazin-7-yl)-6,11-dihydro-5H-pyrido[2,3-b][1,5]benzodiazepine] | 73
26 | CO[C@H]1CC[C@H](C(=O)N2Cc3cccnc3Nc3ccc(-c4cnc5c(c4)ncn5C)cc32)CC1 [Example 403, 6-[(trans-4-methoxycyclohexyl)carbonyl]-8-(3-methyl-3H-imidazo[4,5-b]pyridin-6-yl)-6,11-dihydro-5H-pyrido[2,3-b][1,5]benzodiazepine] | 53
27 | COc1cc(-c2ccc3c(c2)N(C(=O)[C@H]2CC[C@H](OC)CC2)Cc2cccnc2N3)ccn1 [Example 404, 6-[(trans-4-methoxycyclohexyl)carbonyl]-8-(2-methoxypyridin-4-yl)-6,11-dihydro-5H-pyrido[2,3-b][1,5]benzodiazepine] | 83
28 | COc1ccc(-c2ccc3c(c2)N(C(=O)[C@H]2CC[C@H](OC)CC2)Cc2cccnc2N3)cn1 [Example 405, 6-[(trans-4-methoxycyclohexyl)carbonyl]-8-(6-methoxypyridin-3-yl)-6,11-dihydro-5H-pyrido[2,3-b][1,5]benzodiazpine] | 91
29 | CO[C@H]1CC[C@H](C(=O)N2Cc3cccnc3Nc3ccc(-c4ccnnc4)cc32)CC1 [Example 406, 6-[(trans-4-methoxycyclohexyl)carbonyl]-8-pyridazin-4-yl-6,11-dihydro-5H-pyrido[2,3-b][1,5]benzodiazepine] | 648
30 | CO[C@H]1CC[C@H](C(=O)N2Cc3cccnc3Nc3ccc(-c4ccnc(N(C)C)c4)cc32)CC1 [Example 407] | 123
31 | CO[C@H]1CC[C@H](C(=O)N2Cc3cccnc3Nc3ccc(-c4ccncc4F)cc32)CC1 [Example 408, 8-(3-fluoropyridin-4-yl)-6-[(trans-4-methoxycyclohexyl)carbonyl]-6,11-dihydro-5H-pyrido[2,3-b][1,5]benzodiazepine] | 107

Reference: patent US10442819B2, “Tricyclic compounds as inhibitors of mutant IDH enzymes” (Merck Sharp & Dohme Corp., priority 2014, dated 2019)
